From patent US20140037685A1 (priority 2012, published 2014)

Legend:
[1] = system: Nalp3/Asc/caspase-1-deficient C57BL/6 macrophages; assay: Cell death (PI) and Western blot in inflammasome-deficient macrophages
[2] = system: C57BL/6 macrophages from different cathepsin knockout mice; assay: Cell death and protein degradation in cathepsin-deficient macrophages

| SMILES | Impact of Nlrp3 or Asc-deficiency on the inducer-mediated drop in pro-caspase-1 and IL-1β levels ([1]; LPS-primed deficient vs wild-type macrophages) | Impact of Nlrp3 or Asc-deficiency on inducer-mediated cell death ([1]; PI assay) | Impact of cathepsin B, L and S deficiency on inducer-mediated protein degradation and cell death ([2]; cathepsin B, L and S-deficient macrophages) | Impact of cathepsin C deficiency on inducer-mediated protein degradation and cell death ([2]; cathepsin C-deficient macrophages) | Impact of Nlrp3, Asc, and caspase-1-deficiency on inducer-mediated cell death and IL-1β processing ([1]; LPS-primed macrophages, nigericin 2 hours) | Impact of Nlrp3, Asc, and caspase-1-deficiency on the drop in pro-IL18 ([1]; nigericin-treated macrophages) |
| --- | --- | --- | --- | --- | --- | --- |
| COC(=O)[C@H](CC(C)C)NC(=O)[C@@H](N)CC(C)C [LLOMe, Leu-Leu-OMe] | no impact | failed to prevent | no impact | prevented | – | – |
| CO[C@@H]1C[C@@H](C[C@H]2CC[C@H](C)[C@H]([C@@H](C)C(=O)O)O2)O[C@]2(O[C@](C)([C@H]3CC[C@@](C)([C@@H]4O[C@@H]([C@H]5O[C@@](O)(CO)[C@H](C)C[C@@H]5C)C[C@@H]4C)O3)C[C@H]2C)[C@@H]1C [nigericin, Nigericin] | – | – | – | – | prevented | prevented the drop in pro-IL18 |
